Values of other authors in patent US12102628B2, “Composition and methods for the treatment of myopia” (Seinda Pharmaceutical Guangzhou Corporation, priority 2017, dated 2024).

Tiotropium
logP: −1.8
